Earlier results as cited in patent US8629103B2, “Treatment of non-proliferative cystic disease of the breast” (New York University, priority 2010, dated 2014).

Protein sequences, listed by entry. Tags and fused reporters are not part of them.
UniProt P31391, whole entry, species assumed: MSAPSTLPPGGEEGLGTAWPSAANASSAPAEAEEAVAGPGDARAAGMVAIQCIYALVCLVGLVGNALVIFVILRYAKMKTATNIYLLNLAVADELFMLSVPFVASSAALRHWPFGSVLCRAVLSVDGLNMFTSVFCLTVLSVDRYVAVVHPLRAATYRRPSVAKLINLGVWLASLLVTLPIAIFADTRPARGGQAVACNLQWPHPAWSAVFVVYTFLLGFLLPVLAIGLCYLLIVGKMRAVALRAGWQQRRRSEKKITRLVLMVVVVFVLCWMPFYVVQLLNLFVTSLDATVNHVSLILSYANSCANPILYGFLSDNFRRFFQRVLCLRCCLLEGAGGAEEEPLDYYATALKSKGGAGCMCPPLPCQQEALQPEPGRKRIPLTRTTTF
UniProt P32745, whole entry, species assumed: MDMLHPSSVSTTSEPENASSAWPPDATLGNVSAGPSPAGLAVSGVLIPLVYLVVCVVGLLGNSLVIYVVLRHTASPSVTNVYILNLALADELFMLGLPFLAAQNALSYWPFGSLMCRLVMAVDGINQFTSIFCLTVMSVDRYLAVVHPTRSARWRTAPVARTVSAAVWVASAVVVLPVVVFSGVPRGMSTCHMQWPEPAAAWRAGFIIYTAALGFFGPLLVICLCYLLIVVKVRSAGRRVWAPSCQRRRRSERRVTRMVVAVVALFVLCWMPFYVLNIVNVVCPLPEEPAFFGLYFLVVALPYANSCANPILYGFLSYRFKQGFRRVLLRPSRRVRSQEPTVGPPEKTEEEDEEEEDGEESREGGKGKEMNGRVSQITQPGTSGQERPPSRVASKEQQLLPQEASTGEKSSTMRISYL
UniProt P35346, whole entry, species assumed: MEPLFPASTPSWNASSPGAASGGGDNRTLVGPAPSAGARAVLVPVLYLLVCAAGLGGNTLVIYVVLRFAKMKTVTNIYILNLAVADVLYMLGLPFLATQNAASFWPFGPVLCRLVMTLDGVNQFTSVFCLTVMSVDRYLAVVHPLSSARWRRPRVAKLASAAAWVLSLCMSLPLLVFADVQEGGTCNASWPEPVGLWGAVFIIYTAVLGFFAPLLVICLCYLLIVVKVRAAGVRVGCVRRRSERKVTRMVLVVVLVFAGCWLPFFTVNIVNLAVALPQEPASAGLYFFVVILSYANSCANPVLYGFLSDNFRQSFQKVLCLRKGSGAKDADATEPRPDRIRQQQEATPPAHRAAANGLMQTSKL
UniProt P30874, whole entry, species assumed: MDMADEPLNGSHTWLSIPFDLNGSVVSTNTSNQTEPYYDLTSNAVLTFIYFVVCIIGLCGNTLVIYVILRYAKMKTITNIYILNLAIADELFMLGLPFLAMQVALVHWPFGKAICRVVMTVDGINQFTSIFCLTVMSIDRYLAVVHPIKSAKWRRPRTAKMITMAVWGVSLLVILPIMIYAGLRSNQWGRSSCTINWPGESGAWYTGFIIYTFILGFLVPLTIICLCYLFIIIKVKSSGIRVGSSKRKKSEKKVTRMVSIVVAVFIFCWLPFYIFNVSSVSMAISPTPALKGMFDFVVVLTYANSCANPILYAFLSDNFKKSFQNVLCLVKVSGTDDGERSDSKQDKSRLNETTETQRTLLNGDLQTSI
UniProt P30872, whole entry, species assumed: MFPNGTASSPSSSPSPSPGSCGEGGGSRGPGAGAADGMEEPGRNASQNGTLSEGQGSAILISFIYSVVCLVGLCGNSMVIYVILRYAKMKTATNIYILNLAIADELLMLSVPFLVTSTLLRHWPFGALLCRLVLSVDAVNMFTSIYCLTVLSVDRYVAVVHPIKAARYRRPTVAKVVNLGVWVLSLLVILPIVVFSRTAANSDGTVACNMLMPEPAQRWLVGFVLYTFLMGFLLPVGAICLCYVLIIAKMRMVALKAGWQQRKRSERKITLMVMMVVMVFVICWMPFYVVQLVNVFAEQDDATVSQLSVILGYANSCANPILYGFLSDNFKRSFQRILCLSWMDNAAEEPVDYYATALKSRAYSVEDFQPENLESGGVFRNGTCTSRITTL

How the values were obtained:
Conditions in all cases: cited from earlier work
SSTR-4 = SSTR-4 (Homo sapiens, UniProt P31391)
SSTR-3 = SSTR-3 (Homo sapiens, UniProt P32745)
SSTR-5 = SSTR-5 (Homo sapiens, UniProt P35346)
SSTR-2 = SSTR-2 (Homo sapiens, UniProt P30874)
SSTR-1 = SSTR-1 (Homo sapiens, UniProt P30872)

| Substance | affinity for SSTR-4 (SSTR-4) | affinity for SSTR-3 (SSTR-3) | affinity for SSTR-5 (SSTR-5) | affinity for SSTR-2 (SSTR-2) | affinity for SSTR-1 (SSTR-1) |
| --- | --- | --- | --- | --- | --- |
| octreotide | moderate | relatively low; also recorded: moderate | relatively low; also recorded: moderate | high | low |
| vapreotide | moderate | relatively low; also recorded: moderate | relatively low; also recorded: moderate | high | low |

Entries after “also recorded” stand apart in the source; their conditions may differ.
